From PubChem BioAssay AID651718 (The Scripps Research Institute Molecular Screening Center, 2012)
This is a selection; strong and weak results do not stand in their true shares. Activity calls are given as the source filed them. Cut-off read from the data, not from the text of the source: active = inhibition above about 4.5%; inactive = the rest.

Each compound was assayed on Methionine sulfoxide reductase A (Bos taurus) (assay: bovine MsrA enzyme inhibitors, primary screen, biochemical, absorbance, HTS (AID 651718;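 note: 0% = vehicle wells with enzyme and 100% = reference inhibitor wells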)). Settings: purified bovine MsrA, absorbance read-out; at 15.5 µM; active compounds read high.

Structure (SMILES) | inhibition
CC1(CBr)Cn2c(nc3ccccc3c2=O)S1 (stereo not given) | inactive: 1%
COc1ccccc1CNC(=O)COC(=O)C(O)(c1ccccc1)c1ccccc1 | inactive: -0.78%
CC(C)(C)C(=O)NC(Sc1ncccn1)C(Cl)(Cl)Cl (stereo not given) | inactive: 1.17%
O=P1(N(CCCl)CCCl)NCCC(C(F)(F)F)O1 (stereo not given) | inactive: -0.18%
Clc1n[nH]nc1-c1nn[nH][15n]1 | inactive: -1.21%
CCOP(=O)(NC(=NC(C)c1ccccc1)NC(C)c1ccccc1)OCC (stereo not given) | inactive: -0.36%
O=P1(Nc2ccccn2)COc2ccccc2OC1 | inactive: 0.38%
CCC1=CC2Cc3nc4ccc(Cl)cc4c(N)c3C(C1)C2 (stereo not given) | inactive: 1.01%
CCOP(=O)(Nc1ccc(C)cn1)OCC | inactive: -0.97%
CN(CCCl)Cc1cc(Cl)c(NC2=NCCN2)c(Cl)c1 | inactive: -0.46%
Nc1cccc([As](=O)(O)c2ccccc2)c1 | inactive: -0.74%
Cc1ccc(OCC(=O)OC2CN3CCC2CC3)cc1 (stereo not given) | inactive: -1.52%
O=[As](O)(c1cccs1)c1cccs1 | inactive: -0.1%
O=P1(Nc2ccc(Br)cn2)COc2ccccc2OC1 | inactive: -1.4%
NS(=O)(=O)c1cccc(NC(=O)COC(=O)C(O)(c2ccccc2)c2ccccc2)c1 | inactive: -0.04%
Cc1ccc(S(=O)(=O)N(CCCN)CCCc2c(C)nc(N)[nH]c2=O)cc1 | inactive: 3.76%
O=P1(Nc2ncccn2)COc2ccccc2OC1 | inactive: 0.87%
CN(C)C1(CNC(=O)c2ccc(S(C)(=O)=O)cc2)CCCCC1 | inactive: 0.76%
CCCC1OP(=O)(Nc2ccccc2)OCC1CC (stereo not given) | inactive: 0.4%
O=C(/C=C/c1ccccc1)OC1CN2CCC1CC2 (stereo not given) | inactive: 0%
CC1CCC(C(C)C)C(OP(=O)(Nc2ccccn2)c2ccccc2)C1 (stereo not given) | inactive: -1.19%
Cc1ccc(C(=O)OC2CN3CCC2CC3)cc1 (stereo not given) | inactive: 0.1%
Cc1nn(-c2ccccc2)c2c1P(=O)(N1CCOCC1)N(C)C(c1ccccc1)=N2 (stereo not given) | inactive: 0.32%

Structure (SMILES) | inhibition
CN(C(=O)Cc1ccccc1)[C@@H]1CC[C@]2(CCCO2)C[C@H]1N1CCCC1 | inactive: 0.13%
CCOP1(=S)c2c(C)nn(CCC#N)c2N=C(c2ccc(F)cc2)N1C (stereo not given) | inactive: -0.6%
N#CCCN(C(=O)COC(=O)C(O)(c1ccccc1)c1ccccc1)c1ccc(F)cc1 | inactive: -0.95%
CN(C(=O)Cc1ccc(Cl)c(Cl)c1)[C@H]1CC[C@@]2(CCCO2)C[C@@H]1N1CCCC1 | inactive: 0.34%
O=[N+]([O-])c1ccc2c(c1)nnn2O | inactive: 0.94%
CN(C)C(=O)c1cc([N+](=O)[O-])cc2c1-c1c(cc([N+](=O)[O-])cc1[N+](=O)[O-])C2=O | active: 8.33%
NC(=O)Nc1ccc([As](=O)(O)O)cc1 | inactive: -0.85%
Nc1ccccc1[As](=O)(O)c1ccccc1 | inactive: 0%
O=C(O)COc1ccc([As](=O)(O)O)cc1[N+](=O)[O-] | inactive: 0.97%
O=P(Nc1nccs1)(Oc1ccccc1)Oc1ccccc1 | inactive: -0.64%
CCOP1(=S)c2c(C)nn(CCC#N)c2N=C(c2ccccc2F)N1C (stereo not given) | inactive: 0.04%
CCOP(=O)(Nc1cccc2ccccc12)OCC | inactive: -0.54%
COc1cc(C2NCCC3(OCCO3)C2(C)C)cc(OC)c1OC (stereo not given) | inactive: -0.26%
Cc1ccc(NCCc2c([N+](=O)[O-])cc([N+](=O)[O-])cc2[N+](=O)[O-])cc1 | inactive: 0.14%
Nc1cccc2c([As](=O)(O)O)cccc12 | inactive: 0.86%
CCCOP(=S)(Nc1nc(N)cc(=O)[nH]1)OCCC | inactive: 0.19%
Cc1cccc(OCC(=O)OC2CN3CCC2CC3)c1 (stereo not given) | inactive: -0.05%
O=[As](O)(c1cccc(O)c1)c1cccc(O)c1 | inactive: 0.4%
O=C(OC1CN2CCC1CC2)c1ccc(Cl)cc1 (stereo not given) | inactive: 0.35%
CS(=O)(=O)c1ccc(Cl)c(NC(=O)COC(=O)C(O)(c2ccccc2)c2ccccc2)c1 | inactive: -1.31%
O=[As](O)(O)c1cccnc1 | inactive: -1.06%
COc1cc(C(=O)NCC2(N3CCOCC3)CCCCC2)cc(Cl)c1OC(C)C | inactive: 1.5%
